Excerpt: At pH 4 and 5, 0.1 M citrate buffers were used, while for pH 6, 7 and 8a set of 0.1 M phosphate buffers were used. Each buffer also contained 0.2 M NaCl. No cosolvents or other potentially solubilizing components were included. Buffer preparations were subdivided in order to individually test the solubility of only one material in a given buffer sample.

## Cc1cc2c(s1)=Nc1ccccc1NC=2N1CCN(C)CC1 [olanzapine base, 2-methyl-4-(4-methyl-1-piperazinyl)-10H-thieno[2,3-b][1,5]benzodiazepine]
  variation in solubility across the pH range studied: > 1000 fold
